Experimental data as given in US6428804B1, “Intra-articular preparation for the treatment of arthropathy” (SSP Co., Ltd., priority 1997, dated 2002).

Assay: Pharmacokinetic test of beclomethasone-propionate-containing microcapsule samples of different particle sizes (Test 1)
Conditions: rabbit knee joint injection, 1 mg in terms of beclomethasone propionate, 1st day after administration (FIG. 1)

Substance: beclomethasone propionate [bulk powder of beclomethasone propionate]
- amount of beclomethasone propionate in the synovium and its peripheral tissue: substantially no beclomethasone propionate had migrated
